Patent US10093683B2, “Factor XIa inhibitors” (Merck Sharp & Dohme Corp., priority 2014, dated 2018)

By UniProt entry, the sequences of proteins in these tests, tags left out. Residues count along the entry.
UniProt P03951, 19-387 partner: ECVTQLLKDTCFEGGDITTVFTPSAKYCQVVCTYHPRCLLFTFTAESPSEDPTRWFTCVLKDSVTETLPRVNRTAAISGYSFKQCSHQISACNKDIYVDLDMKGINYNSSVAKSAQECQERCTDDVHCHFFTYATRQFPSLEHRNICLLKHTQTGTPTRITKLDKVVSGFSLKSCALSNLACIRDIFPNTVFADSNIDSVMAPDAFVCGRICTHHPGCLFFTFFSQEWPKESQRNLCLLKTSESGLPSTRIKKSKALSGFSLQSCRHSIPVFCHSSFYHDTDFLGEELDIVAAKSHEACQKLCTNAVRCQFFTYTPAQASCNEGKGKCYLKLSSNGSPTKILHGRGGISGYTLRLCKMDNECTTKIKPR
UniProt P03951, 388-625: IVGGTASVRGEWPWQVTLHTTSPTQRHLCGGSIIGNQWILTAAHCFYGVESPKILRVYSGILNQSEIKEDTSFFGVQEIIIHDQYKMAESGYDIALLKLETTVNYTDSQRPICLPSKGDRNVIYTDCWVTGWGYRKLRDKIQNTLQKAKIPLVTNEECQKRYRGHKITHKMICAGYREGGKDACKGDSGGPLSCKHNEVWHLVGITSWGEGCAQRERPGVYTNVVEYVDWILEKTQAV

The molecules below were run against human Factor XIa (Homo sapiens (Human), UniProt P03951) (assay: Factor XIa Assay). Settings: purified human Factor XIa 40 pM, Z-Gly-Pro-Arg-AFC 100 μM, pH 7.4; read-out: FXIa Ki.
Format: biochemical
Procedure: The effectiveness of a compound of the present invention as an inhibitor of Coagulation Factor XIa can be determined using a relevant purified serine protease, and an appropriate synthetic substrate. The rate of hydrolysis of the chromogenic or fluorogenic substrate by the relevant serine protease was measured both in the absence and presence of compounds of the present invention. Assays were conducted at room temperature or at 37° C. […] A decrease in the rate of fluorescence change in the presence of inhibitor is indicative of enzyme inhibition. Such methods are known to one skilled in the art. The results of this assay are expressed as the inhibitory constant, Ki.
Factor XIa determinations were made in 50 mM HEPES buffer at pH 7.4 containing 150 mM NaCl, 5 mM CaCl2, and 0.1% PEG 8000 (polyethylene glycol; JT Baker or Fisher Scientific). Determinations were made using purified human Factor XIa at a final concentration of 40 pM (Sekisui Diagnostics) and he synthetic substrate, Z-Gly-Pro-Arg-AFC, TFA salt (Sigma #C0980) at a concentration of 100 μM.
Times required to achieve equilibration between enzyme and inhibitor were determined in control experiments. Initial velocities of product formation in the absence (Vo) or presence of inhibitor (Vi) were measured. Assuming competitive inhibition, and that unity is negligible compared Km/[S], [I]/e, and [I]/e (where [S], [I], and e respectively represent the total concentrations, of substrate, inhibitor and enzyme), the equilibrium constant (Ki) for dissociation of the inhibitor from the enzyme can be obtained from the dependence of Vo/Vi on [I] shown in the following equation.

Ki [nM] | SMILES
95.4 | COC(=O)Nc1ccc(C(=O)N[C@H](C[C@H](C)OC)C(=O)N2CCC[C@@]3(C2)OC(=O)Nc2ccc(Cl)c(F)c23)cc1 [Example 118D, methyl (4-(((2R,4S)-1-((R)-6-chloro-5-fluoro-2-oxo-1,2-dihydrospiro[benzo[d][1,3]oxazine-4,3′-piperidin]-1′-yl)-4-methoxy-1-oxopentan-2-yl)carbamoyl)phenyl)carbamate]
539 | COC(=O)Nc1ccc(C(=O)N[C@@H](CC2CC2)C(=O)N2CCC3(C2)C(=O)Nc2ccc(Cl)cc23)cc1 (single isomer, unassigned) [Example 20B]

The next lines start with the molecule.

SMILES | Ki [nM]
COC(=O)Nc1ccc(C(=O)N[C@@H](C[C@H](C)OC)C(=O)N2CCC[C@@]3(C2)OC(=O)Nc2ccc(Cl)c(F)c23)cc1 [Example 118A, methyl (4-(((2S,4S)-1-((R)-6-chloro-5-fluoro-2-oxo-1,2-dihydrospiro[benzo[d][1,3]oxazine-4,3′-piperidin]-1′-yl)-4-methoxy-1-oxopentan-2-yl)carbamoyl)phenyl)carbamate] | 2.52
COC(=O)Nc1ccc(NC(=O)[C@@H](Cc2ccccc2)C(=O)N2CC[C@@]3(C2)OC(=O)Nc2ccc(Cl)cc23)cc1 [Example 120c, methyl (4-((R)-2-benzyl-3-((R)-6-chloro-2-oxo-1,2-dihydrospiro[benzo[d][1,3]oxazine-4,3′-pyrrolidin]-1′-yl)-3-oxopropanamido)phenyl)carbamate] | 1440
COC(=O)Nc1ccc(C(=O)N[C@@H](CC2CC2)C(=O)N2CCC3(C2)C(=O)Nc2ccc(Cl)cc23)cc1 (single isomer, unassigned) [Example 20A] | 8750
